# In publication PMC6530635, “A Novel Single-Site Mutation in the Catalytic Domain of Protoporphyrinogen Oxidase IX (PPO) Confers Resistance to PPO-Inhibiting Herbicides” (Frontiers in Plant Science, 2019):
# Tests used:
# [1] = system: Amaranthus palmeri (Palmer amaranth) populations MIS-D, R39P, R43P and SS; assay type: in vivo
# [2] = system: Amaranthus palmeri R39P population; assay type: in vivo; details: R39P F1 population; 2X recommended dose; 21 DAT; 25 seedlings
# [3] = system: Amaranthus palmeri MIS-D population; set-up: method as in Salas-Perez et al., 2017; details: 1X dose, ref Salas-Perez et al., 2017, cited from earlier work
compound,measurement,setting,value
CS(=O)(=O)NC(=O)c1cc(Oc2ccc(C(F)(F)F)cc2Cl)ccc1[N+](=O)[O-] [Fomesafen],"R/S (resistance level, ED50 relative to SS)",[1]; MIS-D vs SS,11 fold
same,Kill of resistant populations at 2X dose,"[1]; MIS-D, R39P, R43P, 2X dose (528 g ai ha^-1)",None of the resistant populations were killed 100%
same,"R/S (resistance level, ED50 relative to SS)",[1]; R39P vs SS,12 fold
same,"R/S (resistance level, ED50 relative to SS)",[1]; R43P vs SS,16 fold
same,Frequency of resistant plants,[2],12%
CC(C)N(C)S(=O)(=O)NC(=O)c1cc(-n2c(=O)cc(C(F)(F)F)n(C)c2=O)c(F)cc1Cl [Saflufenacil],Frequency of resistant plants,[3]; MIS-D field population,0%
same,Mortality,[3]; MIS-D,> 90%
same,Frequency of resistant plants,[2],12%

# Like-named read-outs stand apart in the source and are kept apart here.
